Data on one compound can be found in PMC10848157, “Assessing NH300094, a novel dopamine and serotonin receptor modulator with cognitive enhancement property for treating schizophrenia” (Frontiers in Pharmacology, 2024).

The nature of the series: in vivo. To be noted: male, ICR, mouse, po.

Structures are written as SMILES.

Broadly, the ED50 is the dose that gives a 50% effect, or the effect in half of the subjects. Low readings indicate an effect at a small dose, high ones a need for a large dose. `Cc1nc2n(c(=O)c1CCN1CCC(c3noc4cc(F)ccc34)CC1)CCCC2` [Risperidone, risperidone, reference compound] yielded an ED50 at 60 min of roughly 0.52 mg/kg.
